Test results as given in patent US8106041B2, “Combination product comprising an antagonist or inverse agonist of histamine receptor H3 and an antipsychotic and antidepressant agent, and use thereof for the preparation of a medicament that prevents the adverse effects of psychotropic drugs” (Bioprojet, priority 2003, dated 2012).

Assay: human volunteer study: alertness (quantitative EEG), cognition (psychometric tests), satiety, leptin, tolerance, blood levels
Type: in vivo
Details: 6 male volunteers, oral; olanzapine 5 mg alone; analyzed for 24 hours
Experimental: A group of 6 male volunteers received orally, successively and at one-week intervals: 1) a placebo 2) olanzapine at a dose of 5 mg 3) BF 2649 at a dose of 60 mg 4) a combination of olanzapine and BF 2649 at the doses indicated above.
The subjects were then analyzed for a period of 24 hours with regard to parameters of alertness (quantitative EEG), cognition (various psychometric tests) and satiety (questionnaires for the self-evaluation of feelings of hunger, desire to eat, gastric fullness). In addition, the levels of the two medicaments in the blood was analyzed repeatedly in the course of the nychthemeron.

## Cc1cc2c(s1)Nc1ccccc1N=C2N1CCN(C)CC1 [olanzapine]
  feelings of hunger (satiety self-evaluation questionnaires): very marked increase
  psychometric tests, in particular attention (cognition): profound deterioration
  rapid waves of the EEG (quantitative EEG): decrease in the rapid waves of the EEG to the benefit of the slow waves
  sedation (alertness): deep sedation
